Results taken from ChEMBL document CHEMBL3769379, “SAR Studies of 5-Aminopyrazole-4-carboxamide Analogues as Potent and Selective Inhibitors of Toxoplasma gondii CDPK1” (ACS Med Chem Lett, 2015).

Target: T1, Calmodulin-domain protein kinase 1 (Toxoplasma gondii, UniProt Q9BJF5)
T1 sequence (Q9BJF5 whole entry): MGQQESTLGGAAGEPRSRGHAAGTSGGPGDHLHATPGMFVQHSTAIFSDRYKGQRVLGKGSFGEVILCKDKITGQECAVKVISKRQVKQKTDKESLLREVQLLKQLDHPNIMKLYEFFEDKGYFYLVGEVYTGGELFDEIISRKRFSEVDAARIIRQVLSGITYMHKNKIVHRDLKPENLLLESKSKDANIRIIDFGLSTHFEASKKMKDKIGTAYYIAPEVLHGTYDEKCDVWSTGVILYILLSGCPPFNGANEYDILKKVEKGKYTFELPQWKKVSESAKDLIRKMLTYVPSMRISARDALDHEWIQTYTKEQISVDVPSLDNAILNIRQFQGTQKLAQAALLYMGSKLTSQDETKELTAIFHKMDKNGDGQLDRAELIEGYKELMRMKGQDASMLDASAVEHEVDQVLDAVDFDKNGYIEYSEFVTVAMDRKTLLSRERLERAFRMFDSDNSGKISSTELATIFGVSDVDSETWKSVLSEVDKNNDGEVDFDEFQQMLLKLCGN

**Q.** CCOc1ccc2cc(-c3nn(C(C)CCO)c(N)c3C(N)=O)cnc2c1 (stereo unspecified) was tested. Which IC50 did it give?
**A.** The IC50 was 20 nM.
